Consider two molecules from patent publication US7915223B2, “Antimicrobial agents” (priority 2004, dated 2011).

One series has as its system E. coli. The series is described as follows: Susceptibility to plasma proteases (MIC after pre-incubation in human plasma), E. coli. To be noted: after 18 hours incubation.
In series [1] the test system is methicilin resistant Staphylococcus aureus (CI 15903). The series is described as follows: microbe, parasite or virus in culture. In kind it is cell-based. To be noted: read-out: MIC MR S.a.

On to `CCCCCCCCCCCC(=O)N[C@@H](CCCCN)C(=O)NCCCCCCCC(=O)N[C@@H](CCCCN)C(=O)NCCCCCCCC(=O)N[C@@H](CCCCN)C(=O)NCCCCCCCC(=O)N[C@@H](CCCCN)C(=O)NCCCCCCCC(=O)N[C@@H](CCCCN)C(=O)NCCCCCCCC(=O)N[C@@H](CCCCN)C(N)=O`, for which the “inactivation after incubation with plasma enzymes” value in the series on E. coli is given as “did not display any degree of inactivation”.

Turning to `C[C@@H](O)[C@H]1C(=O)N2C(C(=O)O)=C(SCCN=CN)C[C@H]12` [Imipenem], in series [1], the MIC is greater than 50 µM.
